Yeast mating assay 2: variants of the scFv Ab-95

All variants were tested on one target, the spike HR2 peptide PDVDLGDISGINAS (SARS-CoV-2).

Parent: Ab-95, a human scFv built as VH, a (GGGGS)3 linker, VL. Only the CDRs of the light chain vary.
VH: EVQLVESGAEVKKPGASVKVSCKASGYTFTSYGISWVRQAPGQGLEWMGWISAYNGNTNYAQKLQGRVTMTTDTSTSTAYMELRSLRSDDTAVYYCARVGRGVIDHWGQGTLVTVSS
VL: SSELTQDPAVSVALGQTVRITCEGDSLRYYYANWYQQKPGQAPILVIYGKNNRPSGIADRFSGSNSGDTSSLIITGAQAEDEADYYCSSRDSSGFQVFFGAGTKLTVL

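AAYL52 was designed without a model: most single CDR substitutions and a random sample of double and triple ones. AlphaSeq pools MATa yeast showing the antibodies with MATalpha yeast showing the peptide. Mating (16 h, 30 °C) was followed by selection of diploids and sequencing of their barcodes. Read counts were normalised to the haploid input and turned into Kd by a linear fit to BCL2-family pairs of known affinity, for each replicate. The assay was run in three technical replicates.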

Positions count from residue 1 of the parent VL; P54V puts V in place of P.
Scale: log10 of Kd in nM, estimated from mating counts; low values are strong binders.
The mean shown is taken over the replicates in which the pair was detected.
"nd" marks a missing value. The strain was present, yet no cells mated with the target were sequenced in any replicate, which points to weak or no binding.
Background: pairings of library AAYL52 with three empty control strains gave a value in 28% of cases (median 3.91, 5th percentile 2.90). Values in that range, when seen in few replicates, are hard to tell from nonspecific mating. The control count says in how many pairings with the empty strains this scFv gave a signal.

"log10 Kd (nM), mean",replicates with signal,empty controls,changes
4.40,2 of 3,4 of 9,P54V S88K R90I
nd,0 of 3,2 of 9,L27S K50T D91S
5.00,1 of 3,1 of 9,Y30V N51F D91K
nd,0 of 3,2 of 9,N51L V97I F98L
1.00,3 of 3,5 of 9,Y30S N52Q Q96V
5.10,2 of 3,6 of 9,L27S N51M F98V
4.27,2 of 3,2 of 9,G24I A32F G94W
3.85,3 of 3,6 of 9,E23A N51R S88H
3.68,3 of 3,4 of 9,G24K S88M
2.05,3 of 3,3 of 9,S55T S93I
2.44,3 of 3,4 of 9,Y30C R90M D91F
2.83,3 of 3,3 of 9,G24W L27G Y29R
3.99,1 of 3,0 of 9,S55C S88N S89F
2.86,3 of 3,4 of 9,E23H D25I Y30I
3.97,2 of 3,3 of 9,L27N Y29N S93R
3.76,3 of 3,5 of 9,N52P S93R F95M
3.24,1 of 3,5 of 9,A32F N33W K50N
2.56,3 of 3,4 of 9,Y31S R53L Q96A
nd,0 of 3,1 of 9,Y30T S89R G94H
2.90,3 of 3,2 of 9,D25F R90A Q96L
nd,0 of 3,2 of 9,N52D S88Q V97Q
1.70,3 of 3,2 of 9,S26T Y31E S93A
5.50,1 of 3,2 of 9,L27R Y30F G49W
3.89,2 of 3,3 of 9,N33D N51A D91W
1.58,3 of 3,4 of 9,E23R K50E P54Q
2.24,3 of 3,2 of 9,Y29N Y31S F98A
2.92,3 of 3,4 of 9,D25R S93D Q96H
2.03,3 of 3,3 of 9,S89P S93K F98R
nd,0 of 3,0 of 9,Y31R S92T
3.64,2 of 3,2 of 9,Y31M N52R V97S
4.09,1 of 3,4 of 9,G24Y Y29Q G94Q
5.38,1 of 3,2 of 9,Y30I K50L N51S
4.20,1 of 3,5 of 9,N33K R90N D91T
3.75,1 of 3,2 of 9,S26N S92C Q96N
4.37,1 of 3,2 of 9,Y29V D91L S93V
nd,0 of 3,1 of 9,D25A G94P Q96G
3.72,3 of 3,0 of 9,G49N P54V F95N
3.98,3 of 3,3 of 9,G24Y G49Y S89Q
3.67,2 of 3,3 of 9,Y31T A32I
2.97,1 of 3,0 of 9,S55E S89I Q96F
nd,0 of 3,1 of 9,A32M P54R S88P
4.19,2 of 3,5 of 9,R28I N51R S92W
3.50,2 of 3,4 of 9,S26H F95G Q96Y
nd,0 of 3,2 of 9,G24L N33Q P54L
1.83,3 of 3,7 of 9,Y30Q D91P F95A
3.78,1 of 3,2 of 9,S26Y N33G V97D

Values reported by Engelhart et al. 2022, doi:10.1038/s41597-022-01779-4 (FLAb copy).